# scFv variants of Ab-14 (light chain) against a SARS-CoV-2 spike peptide

Antigen: PDVDLGDISGINAS, a 14-residue peptide of the SARS-CoV-2 spike HR2 region.

Parent scFv Ab-14: VH joined to VL by a 15-residue (Gly4Ser)3 linker. Changes lie in the light chain CDRs alone.
VH: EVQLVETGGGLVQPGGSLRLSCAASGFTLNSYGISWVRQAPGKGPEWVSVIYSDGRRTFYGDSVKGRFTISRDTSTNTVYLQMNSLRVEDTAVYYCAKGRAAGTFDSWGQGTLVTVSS
VL: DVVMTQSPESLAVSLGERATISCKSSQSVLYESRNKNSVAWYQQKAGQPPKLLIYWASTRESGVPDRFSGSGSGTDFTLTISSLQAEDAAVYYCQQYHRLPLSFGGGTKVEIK

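These sequences belong to a second round, designed from the earlier measurements on random variants of the parent. Several design methods are mixed in this list. The assay is AlphaSeq: two haploid yeast populations carry antibody and antigen on their surface. Pairs that bind mate more often; barcode pairs of the diploids are counted by sequencing. Read counts were normalised to the haploid input and turned into Kd by a linear fit to BCL2-family pairs of known affinity, for each replicate. Each pool was mated in six replicate cultures.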

Variants are written as CDR1, CDR2 and CDR3 of the light chain (limits as in the source). Parent: KSSQSVLYESRNKNSVA, WASTRES, QQYHRLPLS. Affinities are written as log10 Kd with Kd in nM; a lower number is a better binder. A mean of the replicates is given; it leaves out those without a signal. "nd" marks a missing value. The strain was present, yet no cells mated with the target were sequenced in any replicate, which points to weak or no binding. Background: pairings of all light chain designs with three empty control strains gave a value in 4% of cases (median 2.64, 5th percentile 1.59). Values in that range, when seen in few replicates, are hard to tell from nonspecific mating. The authors' rule: three or more of the six replicates give a measured affinity, fewer mean a poor binder. The parent sequence was in this pool as ten entries: three were never detected, three once, and four in most replicates, with averages from 0.34 to 2.37. A sequence measured in both rounds can read differently, since the two assays cover different ranges.

CDR-L1	CDR-L2	CDR-L3	log10 Kd (nM), mean	replicates with signal
KFSQAVNSMSVSKSAVA	EMSTRPE	QQYNRLPLS	1.07	5/6
KMSMSWPYEDLMKNSVA	NASTRMQ	QQYHRLPLS	0.32	6/6
QMKDSLSQGIYRQDSVA	SDDIRVL	QQYHHLPLS	1.33	6/6
KVSEFMRGLMKMKDSIA	DNETRNS	QQYDRLPLS	1.80	6/6
KSSQSVLDESRNHNNVA	WASTRES	QQYFRLPLS	nd	0/6
KLSQSWLYESRNPNSVA	NASTRMS	QQYHRLPLS	-0.26	6/6
KVSQSQISESTNKNSVA	EASTRES	QQYHRLTWS	2.23	1/6
KVWQSVLYESFNKNSVA	EASTRES	QQYHRLPLS	1.41	6/6
DISQSWLYESRNKNSVA	GASTRES	QQYHRLPLS	-0.14	6/6
KISQMARVGMTHGNSIA	EEATRAK	QQYHRLPLA	1.08	2/6
KLGEQGGHSMDHANNIA	EVDMLAQ	QQYMHLPLI	0.12	6/6
KSMQSVLYESRNKNNVA	HASTRED	QQYARLPLS	-0.26	6/6
SIRQVTDDYQATHDAIA	DASQIEP	QQYSWLPLS	nd	0/6
KLLQSVLYESRDKNSVA	HASTRLS	QQYHRLPLS	0.21	6/6
KIGGVTNGISRSKNSVA	EQSTRND	QQYDRLPLS	0.33	6/6
TISMVMNHMTKNPNNVA	NMDMRED	QQYDRLPLS	-0.39	6/6
KSSQSWLEESRNKNSVA	WASTREA	QQYHRLPLS	1.13	6/6
KVSQSVLYESRCKNSVA	NASTRES	QQYHRLPLS	0.18	6/6
KSSQAVLYESRNKNSVA	WASTRES	QQYHRLPLT	nd	0/6
KSSQSVLYESLNFNSVA	WASTRES	QQYNRLPLS	1.93	3/6
KSSQSFLYEDRVKNSVA	GASTRES	QQYHRLPLS	0.49	6/6
KLEQSNLYESRNKNSVA	NASTRMS	QQYHRLPLS	0.02	6/6
KLSPMDLYESRMSNSVA	MASTRMV	QQYHRLPLS	0.57	6/6
TISQVMNTMTRHGNNVA	DLQEREN	QQYFRLPLS	0.45	6/6
QLLMATMQGTYERNSVA	HAETRED	QSYHRLPLS	nd	0/6
TLGQSTLMESRNVNNVA	QMSTREK	QQYHRLPLS	-0.18	6/6
HMSMLTLGGLRHKNSVA	QMTTREN	QQYDHLPLS	0.38	6/6
KCSQSVLYESRNKNSVA	HASTRES	QQTHRLPLS	2.31	1/6
MLSQMWAIGMKVSNSVA	QVSTRFE	QQYDRLPLI	1.21	6/6
KCSQSVLMESRNKNSVA	WASTRES	QQYHRLPCS	nd	0/6
KLSQSQLYESRNFNSVA	NASTRES	QQYHRLPLS	0.00	6/6
MISQVMNTLTHEGNNVA	DLQEREK	QQYFRLPLS	1.40	6/6
QLGAYQDMTSKNKNSVA	EQSTREN	QQYHRLPLS	1.50	6/6
KMSQSELYESQNSNSVA	HASQRMS	QQYHRLPLS	-0.05	6/6
TISQSFQMENQFKNSVA	QASTRES	QCYDRLPLS	1.16	6/6
ILYDHVGTLSRNKNSVA	DNSTRES	QQYDRLPLS	2.26	5/6
KLSQSDLYESRNKNSVA	GASTRCS	QQYHRLPLS	0.05	6/6
RLTQQMYGFNIHANAIA	SGAERQW	QQYARLPIS	1.74	4/6
KLSQSWLYESRNKNNVA	GASTRES	QQYHRLPLS	-0.03	6/6
HLSWVMLYESRNKNSVA	NASTRES	QQYHRLPLS	-0.03	6/6
KVSQSHLYESRNKNSLA	HASTRES	QQYHRLPLS	0.34	6/6
KLSALTEMEHKNRNSVA	ELVTRMS	QQYNRLPLS	2.60	2/6
KDSWSVNYESMLKNSVA	WASTRES	QQYWREPLS	nd	0/6
HLSDSVLYESRNKNSVA	NASTRES	QQYHRLPLF	-0.28	6/6
KIGMTLNELMHQKNNVA	DLVEREN	QQYFRLPLS	0.13	6/6
KLQQSVEYESRNKNSVA	NASQRLS	QQYHRLPLS	-0.26	6/6
TIGQSVHETSRGKNSVA	HASTRED	QQYDRLPLS	0.63	6/6
KYSQSVLYESRNKNSVA	GASTRES	QQYHRLPLS	-0.23	6/6
KSSQSVLNESRNKNSVA	DASGRES	QDYHRLVLS	1.00	6/6
TLAQPQKELGYAKDNIA	DGSIRLG	QQYHRLPLV	0.14	6/6
KLSQSWMQEERNKNSVA	QASTREQ	QQYHRLPLS	0.04	6/6
KVSMLDDGGSRNKNSVA	HAHTRES	QQYHRLPLS	0.47	6/6
KLEQSDLYESRNKNSVA	HASTRES	QQYHRLPLS	-0.38	6/6
KSSQSVQYESRNKNSVA	NASTRES	QQYHRLPLS	1.13	6/6
KISYMGEHFSTNHQAIA	QASTREQ	QQYHRLPIS	0.98	6/6
KSSQSWGYESRNKNSVA	NASTRES	QQYHRLPLS	-0.08	6/6
KSSQFVWFETTNKNSVA	DASTRES	QQYHRLPLS	-0.38	6/6
KAQQSQLYESRNQNSVA	NASQRLS	QQYHRLPLS	-0.14	6/6
KSSQSVLYESRLSNSVA	WAYTRES	QQYHRLPLS	nd	0/6
KSSESVYYESRNKNSVA	WASTRES	QQYHRLPLS	2.25	1/6
KLQQSDLYESRNKNNVA	NASLREQ	QQYHRLPLS	0.29	6/6
KVSISELLESRNKNSVA	EASTRES	QQYHRLPLS	0.08	6/6
KLSGLGLYGQRNKNSVA	EASYRED	QQYHRLPLS	-0.47	6/6
KSGQGVLYESRNKNSVA	GASQRCS	QQYHRLPLS	0.27	6/6
KVSQSQLYESRNKNAVA	EASTRES	QQYHRLPLS	-0.32	6/6
NMSDSQERDASILRNIA	DQTTRAM	QQYARLPLS	0.01	6/6
IVTEAQNENSLYTNNIA	EGENTLA	QQYFRLPLQ	1.26	6/6
KLQQSWEYESRNKNSVA	NASTRES	QQYHRLPLS	0.12	6/6
KFEQSVLYEDRNKNSVA	NASQRES	QQYHRLPLS	0.28	6/6
KLSGSVLGESRNKNSVA	SADTRLS	QQYHRLPLS	0.40	5/6
MIQQGENRDQEHYNSIA	EGHERPI	QQYYTLPLV	1.27	6/6
KVSQSVLYEERNKNSVA	WASTRES	QQYHRLPLS	0.64	6/6
KLEQSHLYESRNKNSVA	NASTRMS	QQYHRLPLS	0.08	6/6
KLLQTVMNGRHNRNNVA	HMTMRED	QQYFRLPLS	2.47	4/6
KLSGSVLYESRNKNSVA	GASTRLS	QQYHRLPLS	-0.28	6/6
KFSQSEDYESRNKWSVA	NASTRES	QQYHRLPLS	0.31	6/6

Picked from the list: the 6 lowest averages where every replicate gave a value.

| CDR-L1 | CDR-L2 | CDR-L3 | log10 Kd (nM), mean | replicates with signal |
|---|---|---|---|---|
| KLSGLGLYGQRNKNSVA | EASYRED | QQYHRLPLS | -0.47 | 6/6 |
| TISMVMNHMTKNPNNVA | NMDMRED | QQYDRLPLS | -0.39 | 6/6 |
| KSSQFVWFETTNKNSVA | DASTRES | QQYHRLPLS | -0.38 | 6/6 |
| KLEQSDLYESRNKNSVA | HASTRES | QQYHRLPLS | -0.38 | 6/6 |
| KVSQSQLYESRNKNAVA | EASTRES | QQYHRLPLS | -0.32 | 6/6 |
| KLSGSVLYESRNKNSVA | GASTRLS | QQYHRLPLS | -0.28 | 6/6 |

Source: Li et al. 2023 (doi:10.1038/s41467-023-39022-2), MIT Lincoln Laboratory and A-Alpha Bio; data file from the FLAb repository.